## AlphaSeq binding of Ab-95 light chain variants to a spike HR2 peptide

Binding partner: SARS-CoV-2 spike HR2 peptide, sequence PDVDLGDISGINAS.

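The library (AAYL52) carries one to three amino acid substitutions per variant, with no insertions or deletions. The scFvs were displayed on barcoded MATa yeast, the peptide on MATalpha yeast. After mating in shaken culture at 30 °C for 16 h, diploids were selected and their barcode pairs sequenced. Scores were corrected for input abundance and mapped to Kd with protein pairs of known affinity run in the same pool. Each pool was mated in three replicate cultures.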

Parent scFv Ab-95: VH joined to VL by three GGGGS repeats. Changes lie in the light chain CDRs alone.
VH: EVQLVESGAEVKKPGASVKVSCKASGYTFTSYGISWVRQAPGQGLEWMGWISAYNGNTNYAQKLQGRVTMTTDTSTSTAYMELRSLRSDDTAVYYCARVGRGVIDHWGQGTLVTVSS
VL: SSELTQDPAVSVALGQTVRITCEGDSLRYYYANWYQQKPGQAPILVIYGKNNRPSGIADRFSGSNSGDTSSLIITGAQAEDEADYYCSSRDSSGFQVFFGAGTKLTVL

Substitutions are numbered in sequence along the VL above, starting at 1 (not Kabat).
Affinities are written as log10 Kd with Kd in nM; a lower number is a better binder.
Replicates are averaged; those with no signal do not enter the mean.
A pair that was not seen in that replicate is written "ND"; this usually means weak binding, but a binder can also be missed.
Empty control strains, which show no peptide, gave a signal in 28% of pairings with library AAYL52; the median was 3.91 and 95% of these signals were weaker than 2.90. No background was subtracted. The control count says in how many pairings with the empty strains this scFv gave a signal, with their mean in brackets.
For reference, the parent read 2.31 as the reference entry and 2.25 as a member of this library.

| changes | log10 Kd (nM) by replicate | mean, log10 nM | control signals |
|---|---|---|---|
| Y31R+F98C | 1.95 / 2.43 / 1.03 | 1.80 | 1/9 (3.88) |
| Y31P+R53P+V97Y | 4.60 / ND / ND | 4.60 | 3/9 (3.42) |
| S26P+S92T+G94C | 4.07 / 4.01 / 4.01 | 4.03 | 5/9 (4.18) |
| Y31G+G94H | ND / ND / ND | ND | 4/9 (3.90) |
| S26K+S88M | ND / 3.13 / ND | 3.13 | 3/9 (3.20) |
| N33L+K50R+D91A | ND / 3.17 / ND | 3.17 | 3/9 (2.74) |
| R53F+P54G+R90S | ND / 4.05 / ND | 4.05 | 2/9 (4.22) |
| R28G+N33Y+S93N | ND / ND / ND | ND | 0/9 |
| Y29M+Y31M+G49I | 3.02 / ND / ND | 3.02 | 3/9 (4.48) |
| D25K+S89N+D91Q | ND / ND / ND | ND | 1/9 (3.24) |
| S26C+R53W+S88R | 4.41 / 4.32 / ND | 4.37 | 0/9 |
| E23Y+S26V+Q96E | 4.85 / ND / 3.63 | 4.24 | 5/9 (3.75) |
| G24V+Q96F+F98S | 3.27 / 3.53 / 2.52 | 3.11 | 5/9 (3.81) |
| N51E+P54G+F95S | 2.73 / 2.50 / 2.36 | 2.53 | 5/9 (4.15) |
| A32N+N51M+N52Y | 3.37 / ND / ND | 3.37 | 2/9 (4.67) |
| S26I+R28M+Q96D | 3.96 / ND / ND | 3.96 | 3/9 (3.32) |
| D25K+G49M+N51Y | 4.14 / ND / ND | 4.14 | 2/9 (3.48) |
| D25A+S26F+R90M | ND / ND / ND | ND | 0/9 |
| N51Q+P54H+S92Q | ND / ND / 3.25 | 3.25 | 0/9 |
| K50D+N52K | 1.95 / 2.03 / 1.57 | 1.85 | 2/9 (4.22) |
| K50S+S88H+R90P | 4.68 / ND / ND | 4.68 | 1/9 (3.76) |
| G24D+V97M+F98R | ND / ND / ND | ND | 2/9 (3.96) |
| K50G+S88C+R90H | 3.33 / 3.71 / 2.73 | 3.25 | 6/9 (3.87) |
| S26I+P54D+S93V | ND / 4.11 / 3.32 | 3.71 | 1/9 (4.19) |
| Y31N+K50C+D91G | 1.97 / 2.13 / 1.97 | 2.02 | 2/9 (3.16) |
| E23H+P54I+S88L | 2.76 / 2.55 / 2.64 | 2.65 | 2/9 (3.98) |
| R90V | 3.19 / 3.27 / 2.93 | 3.13 | 4/9 (4.01) |
| Y31V+S93G | 3.16 / 3.77 / 3.25 | 3.39 | 4/9 (4.25) |
| G24Y+G49L+S89G | ND / 4.99 / ND | 4.99 | 4/9 (4.03) |
| D91S | 2.64 / 2.24 / 2.13 | 2.34 | 1/9 (3.73) |
| S26H+A32T+K50A | 2.47 / 2.00 / 1.71 | 2.06 | 1/9 (3.70) |
| E23P+Y31F+S89D | 3.51 / ND / ND | 3.51 | 5/9 (3.69) |

The closing 2 entries, repeated:

changes	log10 Kd (nM) by replicate	mean, log10 nM	control signals
S26H+A32T+K50A	2.47 / 2.00 / 1.71	2.06	1/9 (3.70)
E23P+Y31F+S89D	3.51 / ND / ND	3.51	5/9 (3.69)

Values reported by Engelhart et al. 2022, doi:10.1038/s41597-022-01779-4 (FLAb copy).